According to patent US20240424107A1, “PREPARATION OF SITE-SPECIFIC POLYPEPTIDE CONJUGATES” (POSTECH RESEARCH AND BUSINESS DEVELOPMENT FOUNDATION, priority 2023, published 2024):

Test system: SKBR-3 cells
Test: Real-time target cell killing, xCELLigence RTCA with effector PBMCs
Settings: SKBR-3 with effector PBMCs, 20 nM, 10 nM, 5 nM, up to 96 h, FIGS. 12 to 14

Trastuzumab-DNA-DM1
cytolysis over time / cytotoxic effect (in words): high cytolysis even at low concentrations
